Here are results for 1 substance from patent US11541006B2, “Aqueous formulation for insoluble drugs” (priority 2018, dated 2023).

A short description of the data set: Solubility of insoluble drugs in F96 LMBW vehicle (Example 4). The note with it: stepwise addition until no longer dissolving. The data set is classed as physicochemical.

Consider Casein, for which the “Measured solubility in F96 LMBW Vehicle” value is 1 mg/mL.
